# Earlier results, collected in patent US5762960A (Trustees of Tufts College, priority 1996, dated 1998).
# Read-outs that look alike come from different tables or passages of the source.
# How the values were obtained:
# norepinephrine uptake = test system: norepinephrine uptake; parameters: Amine Uptakes Blocking Activity Norepinephrine: key to the marks not given beside the values; details: cited from earlier work
# serotonin uptake = test system: serotonin uptake; parameters: Amine Uptakes Blocking Activity Serotonin: key to the marks not given beside the values; details: cited from earlier work
# [1] = cited from earlier work
# [2] = in words, text commenting on Table 6
compound,measurement,setting,value
"CNCCC=C1c2ccccc2CCc2ccccc21 [Nortriptyline, 3-(10,11-Dihydro-5H-dibenzo[a,d]cyclohepten-5-ylidene)-N-methyl-1-propamine]",Amine Uptakes Blocking Activity Norepinephrine,norepinephrine uptake; Table 3,++
same,Interaction and blocking activity at the norepinephrine receptor site,norepinephrine uptake; [2],modest or slight
same,Amine Uptakes Blocking Activity Serotonin,serotonin uptake; Table 3,+++
same,Activity at the serotonin receptor site in-vivo,serotonin uptake; [2],highest or very highest
same,Therapeutic plasma level,[1]; Table 3,50 to 150 ng/mL
same,Therapeutic plasma level,[1]; Table 6,50 to 150 ng/mL
